Laboratory results reported in ChEMBL document CHEMBL1136929 (J Med Chem, 2009).

The chains behind the UniProt entries cited, without tags or fusion partners.
UniProt P21554, whole entry: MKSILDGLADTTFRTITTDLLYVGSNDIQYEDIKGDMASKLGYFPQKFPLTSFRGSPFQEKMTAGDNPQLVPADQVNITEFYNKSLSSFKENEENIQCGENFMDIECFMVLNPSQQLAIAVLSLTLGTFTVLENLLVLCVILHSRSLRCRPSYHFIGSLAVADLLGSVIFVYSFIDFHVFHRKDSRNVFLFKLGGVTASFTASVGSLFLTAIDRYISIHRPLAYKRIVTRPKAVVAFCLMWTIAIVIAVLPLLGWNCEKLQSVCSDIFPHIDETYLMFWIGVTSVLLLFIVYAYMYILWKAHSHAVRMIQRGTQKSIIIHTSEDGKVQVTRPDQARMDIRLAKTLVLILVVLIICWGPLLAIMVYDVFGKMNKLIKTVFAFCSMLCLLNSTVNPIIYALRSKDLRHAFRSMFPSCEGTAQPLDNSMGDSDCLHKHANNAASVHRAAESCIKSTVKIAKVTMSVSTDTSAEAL

Molecular target: Cannabinoid receptor 1 (Homo sapiens, UniProt P21554)
Experiment: Displacement of [3H]CP-55940 from human recombinant CB1 receptor expressed in HEK293 cells
Type: cell-based
Method in brief: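 HEK-293 membranes expressing human recombinant CB1 (Bmax 2.5 pmol/mg) or CB2 (Bmax 4.7 pmol/mg). Radioligand [3H]CP55,940 at 0.14 nM for CB1 and 0.084 nM for CB2. Nonspecific binding defined with 100 nM WIN55212-2. Incubated with increasing compound concentrations for 90 min at 30 °C. IC50 converted to Ki by Cheng-Prusoff. At least 3 experiments in duplicate.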

## Cc1ccc(Cn2nc(C(=O)N[C@@H]3C(C)(C)[C@@H]4CC[C@@]3(C)C4)cc2-c2ccc(Cl)c(C)c2)cc1 [SR-144528]
  Ki: 437 nM
